Reference: ChEMBL document CHEMBL3608232, “Exploring the Existing Drug Space for Novel pTyr Mimetic and SHP2 Inhibitors” (ACS Med Chem Lett, 2015)

Sequences of proteins named here, by UniProt entry; tags and fusion partners are left off. A change or cut given only in a name is not applied to a line headed by its entry.
UniProt P10586, whole entry: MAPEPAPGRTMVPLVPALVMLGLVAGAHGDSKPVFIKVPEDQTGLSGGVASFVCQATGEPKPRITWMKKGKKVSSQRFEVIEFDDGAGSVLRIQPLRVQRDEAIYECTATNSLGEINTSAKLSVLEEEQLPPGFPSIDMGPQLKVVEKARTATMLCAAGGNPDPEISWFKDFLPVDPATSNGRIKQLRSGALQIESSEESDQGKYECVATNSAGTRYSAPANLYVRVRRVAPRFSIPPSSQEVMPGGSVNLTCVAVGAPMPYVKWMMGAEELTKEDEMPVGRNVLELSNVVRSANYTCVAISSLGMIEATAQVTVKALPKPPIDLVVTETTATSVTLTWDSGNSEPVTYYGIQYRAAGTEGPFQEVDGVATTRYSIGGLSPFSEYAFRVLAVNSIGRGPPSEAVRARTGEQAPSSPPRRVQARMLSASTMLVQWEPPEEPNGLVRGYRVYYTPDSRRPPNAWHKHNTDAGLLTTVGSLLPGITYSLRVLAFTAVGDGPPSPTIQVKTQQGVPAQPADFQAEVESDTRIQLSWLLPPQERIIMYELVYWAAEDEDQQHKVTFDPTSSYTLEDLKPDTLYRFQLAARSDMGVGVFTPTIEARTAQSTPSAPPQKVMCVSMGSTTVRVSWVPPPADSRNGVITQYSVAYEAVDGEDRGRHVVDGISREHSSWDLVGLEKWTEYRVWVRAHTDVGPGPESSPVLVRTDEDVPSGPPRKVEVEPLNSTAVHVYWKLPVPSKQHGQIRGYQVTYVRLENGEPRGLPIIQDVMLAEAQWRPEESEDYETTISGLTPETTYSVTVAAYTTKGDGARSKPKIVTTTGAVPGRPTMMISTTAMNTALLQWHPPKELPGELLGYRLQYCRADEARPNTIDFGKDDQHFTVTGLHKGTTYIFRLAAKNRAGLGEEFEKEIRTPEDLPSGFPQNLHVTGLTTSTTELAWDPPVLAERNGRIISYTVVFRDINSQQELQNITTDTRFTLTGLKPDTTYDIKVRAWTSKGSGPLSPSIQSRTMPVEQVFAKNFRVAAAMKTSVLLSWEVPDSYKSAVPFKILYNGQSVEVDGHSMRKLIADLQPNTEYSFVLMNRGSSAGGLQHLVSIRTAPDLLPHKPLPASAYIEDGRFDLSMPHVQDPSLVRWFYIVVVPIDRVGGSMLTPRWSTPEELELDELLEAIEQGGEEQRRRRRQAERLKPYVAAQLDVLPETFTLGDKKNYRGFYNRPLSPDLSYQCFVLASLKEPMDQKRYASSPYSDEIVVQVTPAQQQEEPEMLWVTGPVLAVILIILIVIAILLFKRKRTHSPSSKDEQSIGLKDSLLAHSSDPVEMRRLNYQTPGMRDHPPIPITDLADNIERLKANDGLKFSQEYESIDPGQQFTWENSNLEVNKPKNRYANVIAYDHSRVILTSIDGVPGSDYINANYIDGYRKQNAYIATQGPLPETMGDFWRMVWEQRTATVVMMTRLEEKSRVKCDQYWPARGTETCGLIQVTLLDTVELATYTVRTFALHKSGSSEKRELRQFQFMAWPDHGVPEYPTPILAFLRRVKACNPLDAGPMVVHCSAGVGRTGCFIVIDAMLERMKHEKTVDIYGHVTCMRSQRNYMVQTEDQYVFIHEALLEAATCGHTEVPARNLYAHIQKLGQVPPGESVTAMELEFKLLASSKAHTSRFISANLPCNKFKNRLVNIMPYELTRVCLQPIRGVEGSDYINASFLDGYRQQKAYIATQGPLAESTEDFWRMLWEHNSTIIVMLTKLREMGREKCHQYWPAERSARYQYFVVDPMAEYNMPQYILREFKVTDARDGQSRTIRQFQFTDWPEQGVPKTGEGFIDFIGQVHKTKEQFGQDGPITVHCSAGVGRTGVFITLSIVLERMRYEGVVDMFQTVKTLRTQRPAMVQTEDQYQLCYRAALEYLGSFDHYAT
UniProt P28827, whole entry: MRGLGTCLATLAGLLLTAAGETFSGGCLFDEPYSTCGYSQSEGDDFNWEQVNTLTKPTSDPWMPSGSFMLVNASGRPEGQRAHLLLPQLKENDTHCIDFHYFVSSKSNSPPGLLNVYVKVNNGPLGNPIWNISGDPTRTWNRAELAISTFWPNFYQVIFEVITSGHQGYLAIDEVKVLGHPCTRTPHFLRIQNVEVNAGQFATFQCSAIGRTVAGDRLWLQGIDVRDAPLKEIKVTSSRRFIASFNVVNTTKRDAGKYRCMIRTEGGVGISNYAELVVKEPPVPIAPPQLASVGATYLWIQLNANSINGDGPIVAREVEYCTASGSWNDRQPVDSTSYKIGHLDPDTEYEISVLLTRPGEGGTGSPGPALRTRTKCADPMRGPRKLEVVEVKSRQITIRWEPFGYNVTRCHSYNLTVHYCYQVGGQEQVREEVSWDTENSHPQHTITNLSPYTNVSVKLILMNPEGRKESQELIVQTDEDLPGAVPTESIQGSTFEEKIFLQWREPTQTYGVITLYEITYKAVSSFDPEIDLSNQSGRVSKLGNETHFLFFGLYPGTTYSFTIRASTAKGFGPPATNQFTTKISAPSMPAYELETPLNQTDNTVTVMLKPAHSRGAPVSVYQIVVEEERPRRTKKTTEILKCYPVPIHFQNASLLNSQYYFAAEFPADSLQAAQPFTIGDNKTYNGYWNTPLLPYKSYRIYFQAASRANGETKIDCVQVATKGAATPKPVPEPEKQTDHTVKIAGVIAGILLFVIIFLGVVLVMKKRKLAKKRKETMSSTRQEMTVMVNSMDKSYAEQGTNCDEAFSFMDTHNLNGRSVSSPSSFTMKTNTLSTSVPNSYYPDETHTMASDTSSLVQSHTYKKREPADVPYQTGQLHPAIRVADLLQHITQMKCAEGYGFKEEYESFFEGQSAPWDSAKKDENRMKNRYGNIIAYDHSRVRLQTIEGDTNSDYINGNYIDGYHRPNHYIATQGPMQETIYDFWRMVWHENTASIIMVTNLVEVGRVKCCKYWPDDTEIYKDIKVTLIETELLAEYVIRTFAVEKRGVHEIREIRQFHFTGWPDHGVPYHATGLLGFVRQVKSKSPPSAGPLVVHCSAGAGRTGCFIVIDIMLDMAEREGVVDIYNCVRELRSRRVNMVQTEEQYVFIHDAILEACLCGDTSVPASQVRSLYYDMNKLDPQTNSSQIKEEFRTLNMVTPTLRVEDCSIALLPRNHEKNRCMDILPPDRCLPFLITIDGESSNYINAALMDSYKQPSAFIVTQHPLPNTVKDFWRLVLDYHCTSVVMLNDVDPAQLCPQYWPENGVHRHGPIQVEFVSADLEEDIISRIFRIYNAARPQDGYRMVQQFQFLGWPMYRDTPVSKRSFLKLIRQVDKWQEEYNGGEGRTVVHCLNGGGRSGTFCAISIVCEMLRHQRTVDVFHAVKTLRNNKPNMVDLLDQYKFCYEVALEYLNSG
UniProt P23467: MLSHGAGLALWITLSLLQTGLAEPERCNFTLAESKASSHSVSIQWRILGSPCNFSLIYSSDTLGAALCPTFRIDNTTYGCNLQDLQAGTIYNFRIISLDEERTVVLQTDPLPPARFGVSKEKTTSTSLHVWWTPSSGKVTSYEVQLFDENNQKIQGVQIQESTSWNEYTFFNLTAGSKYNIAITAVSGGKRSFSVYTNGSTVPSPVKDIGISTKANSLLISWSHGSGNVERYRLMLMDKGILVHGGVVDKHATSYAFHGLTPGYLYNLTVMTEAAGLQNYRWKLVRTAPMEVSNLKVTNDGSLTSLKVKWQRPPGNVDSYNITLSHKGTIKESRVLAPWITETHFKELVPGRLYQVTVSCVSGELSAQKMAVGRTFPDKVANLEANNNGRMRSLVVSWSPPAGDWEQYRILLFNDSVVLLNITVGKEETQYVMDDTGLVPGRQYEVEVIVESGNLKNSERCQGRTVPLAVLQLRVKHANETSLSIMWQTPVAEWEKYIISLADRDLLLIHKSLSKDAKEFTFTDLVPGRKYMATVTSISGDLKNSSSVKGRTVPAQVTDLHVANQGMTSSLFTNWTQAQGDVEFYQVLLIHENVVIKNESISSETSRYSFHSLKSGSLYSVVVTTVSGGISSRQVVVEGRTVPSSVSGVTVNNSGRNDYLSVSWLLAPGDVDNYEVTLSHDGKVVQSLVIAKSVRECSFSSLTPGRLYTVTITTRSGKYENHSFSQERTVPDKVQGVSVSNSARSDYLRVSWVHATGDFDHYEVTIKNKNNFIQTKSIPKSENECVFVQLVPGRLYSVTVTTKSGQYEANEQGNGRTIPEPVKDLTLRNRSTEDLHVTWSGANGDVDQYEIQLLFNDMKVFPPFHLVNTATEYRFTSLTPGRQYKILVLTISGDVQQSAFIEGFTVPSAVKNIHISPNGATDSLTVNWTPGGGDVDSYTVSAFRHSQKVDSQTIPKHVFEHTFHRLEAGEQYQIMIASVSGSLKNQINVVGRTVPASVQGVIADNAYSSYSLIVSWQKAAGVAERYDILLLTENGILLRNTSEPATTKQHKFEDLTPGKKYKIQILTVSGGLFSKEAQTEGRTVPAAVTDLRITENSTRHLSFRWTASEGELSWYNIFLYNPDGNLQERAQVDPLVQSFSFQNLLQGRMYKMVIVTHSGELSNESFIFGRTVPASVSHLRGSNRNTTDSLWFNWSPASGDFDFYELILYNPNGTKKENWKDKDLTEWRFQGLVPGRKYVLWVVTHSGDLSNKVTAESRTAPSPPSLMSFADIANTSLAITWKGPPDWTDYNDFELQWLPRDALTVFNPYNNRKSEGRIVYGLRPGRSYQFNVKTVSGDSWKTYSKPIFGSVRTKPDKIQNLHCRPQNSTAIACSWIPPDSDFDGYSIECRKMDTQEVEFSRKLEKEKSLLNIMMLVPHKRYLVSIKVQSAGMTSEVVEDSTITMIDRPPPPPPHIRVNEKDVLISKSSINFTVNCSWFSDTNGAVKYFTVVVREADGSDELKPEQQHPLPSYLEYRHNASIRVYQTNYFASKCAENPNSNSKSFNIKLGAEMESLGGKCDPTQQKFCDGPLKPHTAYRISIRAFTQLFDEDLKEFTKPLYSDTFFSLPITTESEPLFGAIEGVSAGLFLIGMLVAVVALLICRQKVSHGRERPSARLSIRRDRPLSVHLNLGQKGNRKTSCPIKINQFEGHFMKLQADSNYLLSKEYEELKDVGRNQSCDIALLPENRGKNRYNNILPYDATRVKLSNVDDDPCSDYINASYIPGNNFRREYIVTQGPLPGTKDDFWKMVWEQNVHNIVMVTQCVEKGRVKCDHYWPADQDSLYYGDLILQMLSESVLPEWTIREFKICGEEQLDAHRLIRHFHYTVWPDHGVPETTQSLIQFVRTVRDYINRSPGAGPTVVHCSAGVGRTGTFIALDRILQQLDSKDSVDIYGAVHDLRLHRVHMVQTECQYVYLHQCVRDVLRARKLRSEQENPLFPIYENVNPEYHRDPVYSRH

Tests used:
[1] = target: Receptor-type tyrosine-protein phosphatase F (Homo sapiens, UniProt P10586); assay: Inhibition of phosphatase activity of human LAR using pNPP as a substrate after 10 mins by spectrophotometer analysis
[2] = target: T1, Tyrosine-protein phosphatase non-receptor type 7 (Homo sapiens, UniProt P35236); assay: Inhibition of phosphatase activity of human HePTP using pNPP as a substrate after 10 mins by spectrophotometer analysis
T1 sequence (P35236 whole entry): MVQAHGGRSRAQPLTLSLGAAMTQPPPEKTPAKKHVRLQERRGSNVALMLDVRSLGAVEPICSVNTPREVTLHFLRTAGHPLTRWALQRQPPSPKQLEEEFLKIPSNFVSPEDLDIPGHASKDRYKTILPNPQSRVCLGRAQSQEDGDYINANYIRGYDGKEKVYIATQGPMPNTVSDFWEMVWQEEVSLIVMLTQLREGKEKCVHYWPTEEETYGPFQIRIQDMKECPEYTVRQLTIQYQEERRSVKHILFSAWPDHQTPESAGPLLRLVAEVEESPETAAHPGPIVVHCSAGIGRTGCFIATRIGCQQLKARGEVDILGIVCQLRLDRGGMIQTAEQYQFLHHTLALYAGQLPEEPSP

[3] = target: Receptor-type tyrosine-protein phosphatase mu (Homo sapiens, UniProt P28827); assay: Inhibition of phosphatase activity of human PTPmu using pNPP as a substrate after 10 mins by spectrophotometer analysis
[4] = target: T2, Low molecular weight phosphotyrosine protein phosphatase (Homo sapiens, UniProt P24666); assay: Inhibition of phosphatase activity of human LMWPTP using pNPP as a substrate after 10 mins by spectrophotometer analysis
T2 sequence (P24666 whole entry): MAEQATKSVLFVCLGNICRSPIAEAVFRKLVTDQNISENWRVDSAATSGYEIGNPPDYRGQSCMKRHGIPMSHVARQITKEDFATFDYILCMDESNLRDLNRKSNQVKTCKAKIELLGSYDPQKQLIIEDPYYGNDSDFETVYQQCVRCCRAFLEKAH

[5] = target: T3, Serine/threonine-protein phosphatase 5 (Homo sapiens, UniProt P53041); assay: Inhibition of phosphatase activity of human PP5 using pNPP as a substrate after 10 mins by spectrophotometer analysis
T3 sequence (P53041 whole entry): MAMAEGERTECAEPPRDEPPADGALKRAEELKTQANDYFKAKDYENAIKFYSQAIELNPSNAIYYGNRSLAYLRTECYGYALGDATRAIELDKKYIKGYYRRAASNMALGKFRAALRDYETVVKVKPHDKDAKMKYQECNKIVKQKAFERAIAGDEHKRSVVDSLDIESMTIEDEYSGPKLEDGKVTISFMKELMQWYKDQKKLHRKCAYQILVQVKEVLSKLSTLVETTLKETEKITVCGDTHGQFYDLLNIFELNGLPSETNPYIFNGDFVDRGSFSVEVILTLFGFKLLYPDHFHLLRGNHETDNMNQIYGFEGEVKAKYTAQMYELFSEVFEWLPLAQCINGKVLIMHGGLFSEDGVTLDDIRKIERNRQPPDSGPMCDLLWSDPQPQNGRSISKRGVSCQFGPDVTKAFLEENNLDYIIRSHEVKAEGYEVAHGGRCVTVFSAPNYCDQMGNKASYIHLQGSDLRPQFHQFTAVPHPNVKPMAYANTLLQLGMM

[6] = target: Receptor-type tyrosine-protein phosphatase beta (Homo sapiens, UniProt P23467); assay: Inhibition of phosphatase activity of human PTPbeta using pNPP as a substrate after 10 mins by spectrophotometer analysis

Measured: IC50

CC(C)c1ccc(NC(=O)C(=O)Nc2ccc(NC(=O)C(c3ccccc3)S(=O)(=O)O)cc2)cc1 (stereo unspecified)
> 50 µM: all assays above
